These results are taken from patent publication US20020114734A1, “Microplate thermal shift assay apparatus for ligand development and multi-variable protein chemistry optimization” (priority 1996, published 2002).

Protein sequences, listed by entry. Tags and fused reporters are not part of them.
UniProt P05230, whole entry, species assumed: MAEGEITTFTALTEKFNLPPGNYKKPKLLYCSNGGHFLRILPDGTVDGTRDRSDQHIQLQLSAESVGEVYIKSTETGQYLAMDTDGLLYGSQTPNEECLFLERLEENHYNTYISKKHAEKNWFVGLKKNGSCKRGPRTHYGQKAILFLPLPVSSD

A word on the Kd: it is the constant that tells how readily two partners part at equilibrium.

The assay has as its target T1, acidic fibroblast growth factor (aFGF) (Homo sapiens, UniProt P05230).
T1 construct: host or cells: E. coli
Briefly: Microplate thermal shift assay for ligands binding to aFGF, turbidity as signal. The text has this: The second therapeutic receptor tested in the microplate thermal shift assay was acidic fibroblast growth factor (aFGF), a growth factor that plays a key role in angiogenesis (Folkman, J. et al., J. Biol. Chem. 267:10931-10934 (1992)). A synthetic gene for this protein was purchased from R&D Systems (Minneapolis, Minn.), and was cloned and expressed in E. coli using methods similar to those described for basic fibroblast growth factor (bFGF) (Thompson, L. D. et al., Biochemistry 33:3831-3840 (1994); Pantoliano, M. W. et al., Biochemistry 33:10229-10248 (1994); Springer, B. A. et al., J. Biol. Chem. 269:26879-26884 (1994)). Recombinant aFGF was then purified by heparin-sepharose affinity chromatography as described (Thompson, L. D. et al., Biochemistry 33:3831-3840 (1994)). aFGF is also known to bind heparin/heparan, which is a cofactor for mitogenic activity. […] A microplate thermal assay of these compounds was set up in a way similar to that described above for human α-thrombin. […] The affinity constants covered a fairly broad range of binding affinities, with pentosan PSO4 showing the highest affinity.

The structures appear in SMILES notation.

Regarding `N[C@@H](CCC(=O)O)C(=O)N[C@@H](CCC(=O)O)C(=O)N[C@@H](CCC(=O)O)C(=O)N[C@@H](CCC(=O)O)C(=O)N[C@@H](CCC(=O)O)C(=O)O` [EEEEE], the dissociation constant Kd (equation (1), estimated ΔHu 60.0 kcal/mole, ΔCpu 0.95 kcal/mole-°K, read-out: Kd at Tm) was over 50 µM. For the same compound, the ΔTm (relative to aFGF alone (317.15 ° K)) worked out at 0.0 ° K.
